What was measured:
Assay type in all cases: biochemical
PI3K (p110γ) = PI3K (p110γ) (Homo sapiens, UniProt P48736); experiment: PI3Kγ ADP-Glo kinase assay; conditions: read-out: PI3Kγ Enzyme activity IC50
[1] = molecular target: recombinant PI3K (p110α/p85α) (Homo sapiens, UniProt P42336); experiment: PI3Kα ADP-Glo kinase assay; conditions: read-out: PI3Kα Enzyme activity IC50
[2] = molecular target: recombinant PI3K (p110δ/p85α) (Homo sapiens, UniProt O00329); experiment: PI3Kδ ADP-Glo kinase assay; conditions: read-out: PI3Kδ Enzyme activity IC50
PI3K (p110β/p85α) = PI3K (p110β/p85α) (Homo sapiens, UniProt P42338); experiment: PI3Kβ ADP-Glo kinase assay; conditions: read-out: PI3Kβ Enzyme activity IC50

By UniProt entry, the sequences of proteins in these tests, tags left out. Where a name states a change or a piece, a line headed by the entry shows the natural chain unless it says otherwise.
UniProt P48736, whole entry: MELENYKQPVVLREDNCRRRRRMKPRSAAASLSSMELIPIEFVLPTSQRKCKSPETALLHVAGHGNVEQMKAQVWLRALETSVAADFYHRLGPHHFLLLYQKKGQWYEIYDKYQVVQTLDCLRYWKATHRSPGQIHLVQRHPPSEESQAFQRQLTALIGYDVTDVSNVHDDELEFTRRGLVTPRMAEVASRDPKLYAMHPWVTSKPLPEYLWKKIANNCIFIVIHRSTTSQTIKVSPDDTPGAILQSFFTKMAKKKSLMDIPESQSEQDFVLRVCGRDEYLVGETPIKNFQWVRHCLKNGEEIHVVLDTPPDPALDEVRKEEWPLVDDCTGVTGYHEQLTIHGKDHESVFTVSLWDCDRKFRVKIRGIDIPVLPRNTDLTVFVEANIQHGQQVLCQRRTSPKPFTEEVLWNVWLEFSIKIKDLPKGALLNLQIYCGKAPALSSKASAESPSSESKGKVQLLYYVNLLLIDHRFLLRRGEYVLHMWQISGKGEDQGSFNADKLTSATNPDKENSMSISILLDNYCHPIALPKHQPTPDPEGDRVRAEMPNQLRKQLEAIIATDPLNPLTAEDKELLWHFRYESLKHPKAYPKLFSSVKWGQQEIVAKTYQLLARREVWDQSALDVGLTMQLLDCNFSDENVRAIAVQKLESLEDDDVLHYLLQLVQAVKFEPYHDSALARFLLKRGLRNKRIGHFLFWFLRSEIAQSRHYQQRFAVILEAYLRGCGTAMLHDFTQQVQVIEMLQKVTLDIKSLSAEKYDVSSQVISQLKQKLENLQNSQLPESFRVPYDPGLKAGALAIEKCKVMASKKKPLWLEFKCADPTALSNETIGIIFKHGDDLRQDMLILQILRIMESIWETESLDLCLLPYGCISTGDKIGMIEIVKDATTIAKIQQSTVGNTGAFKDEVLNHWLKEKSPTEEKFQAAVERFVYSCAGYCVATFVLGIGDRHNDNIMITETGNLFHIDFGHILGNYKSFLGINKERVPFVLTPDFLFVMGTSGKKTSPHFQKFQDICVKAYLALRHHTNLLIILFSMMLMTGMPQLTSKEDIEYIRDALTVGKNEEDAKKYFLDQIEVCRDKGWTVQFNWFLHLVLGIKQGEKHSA
UniProt P42336, whole entry: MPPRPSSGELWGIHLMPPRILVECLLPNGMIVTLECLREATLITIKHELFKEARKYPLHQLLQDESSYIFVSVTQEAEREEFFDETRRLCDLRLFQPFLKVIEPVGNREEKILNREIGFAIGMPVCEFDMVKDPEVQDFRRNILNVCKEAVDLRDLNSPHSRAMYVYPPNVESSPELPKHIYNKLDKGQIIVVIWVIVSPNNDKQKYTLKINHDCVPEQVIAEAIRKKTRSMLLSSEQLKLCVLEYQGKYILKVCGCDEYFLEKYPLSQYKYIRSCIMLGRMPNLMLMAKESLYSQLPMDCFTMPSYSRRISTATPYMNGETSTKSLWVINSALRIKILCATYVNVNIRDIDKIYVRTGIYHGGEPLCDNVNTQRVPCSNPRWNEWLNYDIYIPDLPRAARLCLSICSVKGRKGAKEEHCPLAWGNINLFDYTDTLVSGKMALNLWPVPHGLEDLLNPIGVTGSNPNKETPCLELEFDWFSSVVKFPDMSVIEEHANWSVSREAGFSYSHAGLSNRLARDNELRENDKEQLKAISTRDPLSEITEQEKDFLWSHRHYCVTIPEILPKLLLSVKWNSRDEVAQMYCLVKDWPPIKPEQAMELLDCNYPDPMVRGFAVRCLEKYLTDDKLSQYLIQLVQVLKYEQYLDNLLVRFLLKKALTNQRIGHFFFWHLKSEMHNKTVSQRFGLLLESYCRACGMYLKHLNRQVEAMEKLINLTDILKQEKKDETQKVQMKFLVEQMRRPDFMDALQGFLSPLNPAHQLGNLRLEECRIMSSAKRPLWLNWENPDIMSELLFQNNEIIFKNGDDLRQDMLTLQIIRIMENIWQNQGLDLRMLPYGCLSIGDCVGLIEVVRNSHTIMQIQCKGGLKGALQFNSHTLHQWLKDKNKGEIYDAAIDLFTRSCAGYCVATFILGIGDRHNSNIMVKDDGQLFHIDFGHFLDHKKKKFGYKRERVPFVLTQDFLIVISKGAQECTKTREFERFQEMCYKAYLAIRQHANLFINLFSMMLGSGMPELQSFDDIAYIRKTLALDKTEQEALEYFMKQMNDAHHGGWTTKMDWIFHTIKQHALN
UniProt O00329, whole entry: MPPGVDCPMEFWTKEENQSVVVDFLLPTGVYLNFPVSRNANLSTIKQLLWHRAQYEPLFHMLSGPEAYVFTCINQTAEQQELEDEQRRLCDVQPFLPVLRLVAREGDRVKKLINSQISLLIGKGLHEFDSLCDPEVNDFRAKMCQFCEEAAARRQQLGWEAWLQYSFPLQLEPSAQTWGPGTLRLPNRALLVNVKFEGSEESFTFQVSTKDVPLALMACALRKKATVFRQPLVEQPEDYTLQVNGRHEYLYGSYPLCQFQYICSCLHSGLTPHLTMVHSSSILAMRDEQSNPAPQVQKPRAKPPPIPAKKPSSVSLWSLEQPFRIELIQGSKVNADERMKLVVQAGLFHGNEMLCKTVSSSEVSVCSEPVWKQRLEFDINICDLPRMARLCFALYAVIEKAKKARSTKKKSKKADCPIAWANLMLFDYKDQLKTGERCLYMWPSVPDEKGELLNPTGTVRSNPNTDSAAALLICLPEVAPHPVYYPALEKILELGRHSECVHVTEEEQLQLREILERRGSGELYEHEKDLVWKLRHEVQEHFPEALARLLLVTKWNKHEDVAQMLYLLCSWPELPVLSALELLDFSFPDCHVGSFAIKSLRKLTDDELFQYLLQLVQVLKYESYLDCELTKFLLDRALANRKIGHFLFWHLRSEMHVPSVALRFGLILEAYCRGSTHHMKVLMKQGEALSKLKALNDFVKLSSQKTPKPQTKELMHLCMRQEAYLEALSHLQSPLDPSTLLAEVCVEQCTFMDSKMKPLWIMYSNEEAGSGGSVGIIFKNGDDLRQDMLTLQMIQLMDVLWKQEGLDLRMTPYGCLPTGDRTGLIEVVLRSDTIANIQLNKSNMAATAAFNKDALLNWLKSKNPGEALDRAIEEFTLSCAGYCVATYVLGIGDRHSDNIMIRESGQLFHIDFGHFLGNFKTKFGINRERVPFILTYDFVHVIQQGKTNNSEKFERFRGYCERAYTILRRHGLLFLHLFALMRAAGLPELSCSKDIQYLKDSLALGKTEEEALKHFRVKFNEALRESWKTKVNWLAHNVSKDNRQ
UniProt P42338, whole entry: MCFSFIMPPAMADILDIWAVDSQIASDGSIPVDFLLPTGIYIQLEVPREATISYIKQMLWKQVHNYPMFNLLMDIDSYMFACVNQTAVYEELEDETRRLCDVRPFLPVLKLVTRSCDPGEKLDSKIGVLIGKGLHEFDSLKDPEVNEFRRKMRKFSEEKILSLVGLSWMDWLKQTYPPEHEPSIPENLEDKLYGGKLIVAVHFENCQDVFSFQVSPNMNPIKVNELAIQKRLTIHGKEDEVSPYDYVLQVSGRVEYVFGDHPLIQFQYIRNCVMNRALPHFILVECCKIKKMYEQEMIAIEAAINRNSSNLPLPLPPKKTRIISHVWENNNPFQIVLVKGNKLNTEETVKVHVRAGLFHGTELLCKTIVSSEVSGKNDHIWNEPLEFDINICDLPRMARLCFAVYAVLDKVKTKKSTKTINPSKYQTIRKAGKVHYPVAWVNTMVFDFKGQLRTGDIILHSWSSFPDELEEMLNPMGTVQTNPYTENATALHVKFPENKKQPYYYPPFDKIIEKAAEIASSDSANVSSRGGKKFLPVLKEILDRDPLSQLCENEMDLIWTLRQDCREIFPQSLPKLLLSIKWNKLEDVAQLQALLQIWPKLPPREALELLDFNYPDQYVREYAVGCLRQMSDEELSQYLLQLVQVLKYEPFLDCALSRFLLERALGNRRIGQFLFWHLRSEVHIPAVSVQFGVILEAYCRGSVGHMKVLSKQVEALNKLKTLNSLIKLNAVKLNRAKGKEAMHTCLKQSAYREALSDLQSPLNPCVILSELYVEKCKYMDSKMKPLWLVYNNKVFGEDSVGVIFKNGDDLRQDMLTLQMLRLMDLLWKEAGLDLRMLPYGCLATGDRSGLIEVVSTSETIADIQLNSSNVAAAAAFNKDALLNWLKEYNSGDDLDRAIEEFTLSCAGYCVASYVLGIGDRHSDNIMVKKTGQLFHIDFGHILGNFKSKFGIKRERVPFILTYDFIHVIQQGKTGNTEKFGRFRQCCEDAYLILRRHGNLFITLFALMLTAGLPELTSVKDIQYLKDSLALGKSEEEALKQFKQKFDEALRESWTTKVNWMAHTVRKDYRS
UniProt P27986, whole entry partner: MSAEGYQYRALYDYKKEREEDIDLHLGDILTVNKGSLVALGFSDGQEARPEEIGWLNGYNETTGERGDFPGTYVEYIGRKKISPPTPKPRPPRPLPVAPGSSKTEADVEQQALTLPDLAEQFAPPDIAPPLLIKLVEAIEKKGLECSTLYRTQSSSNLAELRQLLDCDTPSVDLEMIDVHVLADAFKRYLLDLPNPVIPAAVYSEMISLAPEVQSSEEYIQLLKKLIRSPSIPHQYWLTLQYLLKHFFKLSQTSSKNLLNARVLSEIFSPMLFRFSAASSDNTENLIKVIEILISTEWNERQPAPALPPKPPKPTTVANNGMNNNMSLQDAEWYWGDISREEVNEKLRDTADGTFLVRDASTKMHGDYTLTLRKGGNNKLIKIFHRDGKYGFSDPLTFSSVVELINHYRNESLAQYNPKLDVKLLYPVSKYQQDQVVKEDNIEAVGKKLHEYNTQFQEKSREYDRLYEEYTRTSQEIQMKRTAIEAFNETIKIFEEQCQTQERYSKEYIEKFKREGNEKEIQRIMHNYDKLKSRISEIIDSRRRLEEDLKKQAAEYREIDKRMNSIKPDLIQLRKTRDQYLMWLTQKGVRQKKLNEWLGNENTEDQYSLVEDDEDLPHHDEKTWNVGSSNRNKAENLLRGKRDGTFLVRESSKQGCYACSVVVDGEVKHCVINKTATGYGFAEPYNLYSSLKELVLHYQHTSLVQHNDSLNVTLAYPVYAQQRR

| Compound | IC50 (PI3K (p110γ)) [nM] | IC50 [1] [nM] | IC50 [2] [nM] | IC50 (PI3K (p110β/p85α)) [nM] |
| --- | --- | --- | --- | --- |
| COc1c([C@H](C)c2nc(Br)c3c(N)nccn23)cc(Cl)c(C)c1-c1cccnc1 | 150 | 360 | 0.59 | – |
| COc1c([C@@H](C)c2nc(Br)c3c(N)nccn23)cc(Cl)c(C)c1-c1cccnc1 | – | – | 1600 | – |
| CC(C)Oc1c(C(C)c2nc(Cl)c3c(N)nccn23)cc(Cl)c(F)c1-c1ccc(=O)[nH]c1 (stereo not shown) | 170 | 810 | 0.2 | 190 |
| CCOc1c([C@@H](C)c2nc(Br)c3c(N)nccn23)cc(Cl)c(C)c1-c1ccc(C)nc1 | – | – | 43 | – |
| CCOc1c([C@H](C)c2nc(Br)c3c(N)nccn23)cc(Cl)c(C)c1-c1ccc(C)nc1 | 210 | 580 | 1.3 | 180 |
